{"source": "patent US5238927A", "about": "(priority 1992, dated 1993)", "origin": "cited, not measured here", "system": "carboxy, choline and other esterases", "conditions": "compared within the H-series"}
{"compound": "NC(=O)c1cc[n+](COC[n+]2ccccc2C=NO)cc1", "note": "[HI-6, 1-(2-hydroxyiminomethylpyridinium)-2-(4-carboxyamidopyridinium)-dimethyl ether dichloride]", "values": [{"measurement": "effectiveness in the reactivation of esterases inhibited by organophosphorus nerve toxins", "value": "most effective compound of the H-series"}]}
